Assay [1] addresses T1, FLT3-ITD (Homo sapiens, UniProt P36888, ITD). Briefly: KdELECT competitive binding assay.
The target in assay [2] is T1, FLT3-ITD. The assay is described as follows: HotSpot Kinase assay. Format: biochemical.

By UniProt entry, the sequences of proteins in these tests, tags left out. Residues count along the entry.
UniProt P36888, 564-993, stated change not applied: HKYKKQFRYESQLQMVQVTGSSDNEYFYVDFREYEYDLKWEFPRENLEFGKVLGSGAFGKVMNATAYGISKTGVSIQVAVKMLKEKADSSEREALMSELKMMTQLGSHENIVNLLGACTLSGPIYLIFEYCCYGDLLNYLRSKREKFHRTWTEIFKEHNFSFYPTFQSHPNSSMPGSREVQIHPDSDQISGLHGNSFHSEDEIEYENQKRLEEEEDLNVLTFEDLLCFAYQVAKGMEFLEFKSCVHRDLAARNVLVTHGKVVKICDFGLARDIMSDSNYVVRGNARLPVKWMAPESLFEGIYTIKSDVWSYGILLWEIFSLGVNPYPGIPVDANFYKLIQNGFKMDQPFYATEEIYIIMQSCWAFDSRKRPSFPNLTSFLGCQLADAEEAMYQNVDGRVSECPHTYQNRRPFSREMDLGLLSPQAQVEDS

For 1 compound, Kd and IC50 results are on record in article PMC6858927 (Investigational new drugs, 2019).

Structures are written as SMILES.

Usually Kd stands for the free concentration of one partner at which half of the binding sites on the other are occupied at equilibrium, for simple one-to-one binding. A low value points to higher affinity. What is called IC50 is the concentration needed to halve the response being measured. Read a low IC50 as inhibition by little substance.

In turn, `C1=C/COCc2cc(ccc2OCCN2CCCC2)Nc2nccc(n2)-c2cccc(c2)COC/1` [Pacritinib, 11-(2-pyrrolidin-1-yl-ethoxy)-14,19-dioxa-5,7,26-triaza-tetracyclo[19.3.1.1(2,6). 1(8,12)]heptacosa-1(25),2(26),3,5,8,10,12(27),16,21,23-decaene] gave an equilibrium dissociation constant (Kd) on FLT3-ITD [1] of 8.2 nM. Further, the concentration for half-maximal inhibition (IC50) on FLT3-ITD [2] came out at 9 nM.
